# scFv variants of Ab-14 (light chain) against a SARS-CoV-2 spike peptide

The measurements come from Li et al. 2023 (doi:10.1038/s41467-023-39022-2) through the FLAb antibody collection.

Target peptide (SARS-CoV-2 spike, HR2 region): PDVDLGDISGINAS

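Designed CDR sequences, proposed from the first random library and measured here. Group labels follow the data file (Ctrl: baseline library sampled from a position-specific scoring matrix, with some repeated check sequences; En: ensemble of fine-tuned language models; GP: Gaussian process model; GPLM: also part of the Gaussian process libraries; HC: hill climbing; Gen: genetic algorithm; Gibbs: Gibbs sampling; a sequence that several methods proposed may carry one label only). The scFvs were displayed on barcoded MATa yeast, the peptide on MATalpha yeast. Mating (16 h, 30 °C) was followed by selection of diploids and sequencing of their barcodes. A regression on co-assayed BCL2-family reference pairs converts the normalised counts of each replicate to an apparent Kd. Each pool was mated in six replicate cultures.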

Ab-14 is the parent antibody, in scFv form: VH, then the linker GGGGSGGGGSGGGGS, then VL. The heavy chain is unchanged in all variants.
VH: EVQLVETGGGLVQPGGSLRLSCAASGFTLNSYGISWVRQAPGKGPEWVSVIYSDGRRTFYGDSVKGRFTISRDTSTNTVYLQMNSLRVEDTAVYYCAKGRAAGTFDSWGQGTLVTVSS
VL: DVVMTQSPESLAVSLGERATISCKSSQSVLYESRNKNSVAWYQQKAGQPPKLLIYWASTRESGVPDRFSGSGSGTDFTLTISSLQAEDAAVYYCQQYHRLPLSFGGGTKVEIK

Each variant is given by its three light chain CDRs, as the data file delimits them; those of the parent are KSSQSVLYESRNKNSVA, WASTRES, QQYHRLPLS. Each Kd is an estimate from the mating assay, the geometric mean of the replicates in which the pair was seen; lower is stronger. An entry "not detected" has no value in the source: the pair was not observed among the diploids in any replicate. This suggests poor binding but is not conclusive. Where one sequence has several entries in the source, the replicates are pooled. The parent sequence was in this pool as ten entries: three were never detected, three once, and four in most replicates, with averages from 2.2 nM to 240 nM. A sequence measured in both rounds can read differently, since the two assays cover different ranges. Nonspecific signal, from three strains lacking the peptide, appeared in 4% of pairings of all light chain designs, centred on 430 nM (5% of these signals below 38 nM); values are not corrected for it. The authors' rule: three or more of the six replicates give a measured affinity, fewer mean a poor binder.

CDR-L1 | CDR-L2 | CDR-L3 | group | Kd | seen in
KVSQSVLYESRNKNSVA | EASTRES | QQYHRLPLS | Ctrl+GP_Gen | 630 pM | 12 of 12
KYSQSDLYESRNKNSVA | GASTRES | QQYHRLPLS | GP_Gen | 1.4 nM | 6 of 6
KLSLSMSFSLRGTRAIA | AGSTRAH | QQYHRLPLT | En_Gibbs | 180 nM | 5 of 6
KVSQWWLYESRMKNAVA | NASTRED | QQYHRLPLS | GP_Gibbs | 1.3 nM | 6 of 6
TIGGTLMYGMRNRSNVA | EVSERLN | QQYDRLPLM | En_Gen | 43 nM | 6 of 6
TVSQVQGMLSHNKNSVA | DMNTRGS | QQYDRLPLS | En_HC | not detected | 0 of 6
KMSMSWPYEDLNKNSVA | NASTRMQ | QQYHRLPLS | GP_Gibbs | 3.1 nM | 6 of 6
KLSQSVLYESRNKNNVA | QASQRES | QQYHRLPLS | GP_Gen | 300 pM | 6 of 6
KLSIMYQHTSKNKNNIA | ERSTREE | QQYHHLPLS | En_HC | 2.0 nM | 6 of 6
HLSDSVLYESRNKNSVA | NASTRCS | QQYHRLPLN | GP_HC | 4.6 nM | 6 of 6
KSDQSVLYESRNKQSVA | SASTRES | QQYHRLPLS | Ctrl | 2.9 nM | 6 of 6
KLQMSVMMESRWCNSVA | QASTREE | QQYHRLPLS | GP_Gibbs | 4.6 nM | 6 of 6
KVEGGVMMGSRNKNSVA | HASVREQ | QQYHRLPLS | GP_Gibbs | 3.2 nM | 6 of 6
MMSQVTGSGTRHRNNVA | QTSEREP | QQYDRLPLI | En_Gen | 11 nM | 6 of 6
KLSQGYLYESRNKNSVA | NASTRES | QQYHRLPLS | GP_Gen | 1.0 nM | 6 of 6
KSSQSVLYESRNKNSVA | WASTRER | QQYHTLPLS | Ctrl | 190 nM | 3 of 6
KLPQLVLYESRNKNSVA | GASTRES | QQYHRLPLS | GP_HC | 730 pM | 6 of 6
KAVQSWNYESRNKNSVA | GASTRES | QQYHRLPLI | GP_HC | 2.9 nM | 6 of 6
KLYQSGLYESRNKNSVA | SASMRES | QQYFRLPLS | GP_Gibbs | 260 pM | 6 of 6
KAQQSWLYESRNKNSVA | GASTRES | QQYHRLPLI | GP_HC | 3.1 nM | 6 of 6
KVQQSELGESRHFNSVA | NASKRCS | QQYHRLPLS | GP_Gibbs | 6.1 nM | 6 of 6
IISGSSLMESRNKNSVA | NAETREY | QHYDRLPLS | En_HC | 15 nM | 6 of 6
KFSQSVLYESRNKNHVA | GASTRES | QQYHRLPLS | Ctrl | 3.0 nM | 6 of 6
KSSTSVWFESRNQNSVA | WASTRES | QQYNRLPLS | Ctrl | 19 nM | 6 of 6
KLSQSNLYEDRNANNVA | NASQRES | QEYHRLPLS | GP_Gibbs | 2.2 nM | 6 of 6
KVPGENLYESRNKNSVA | EASTRES | QQYHRLPLS | GP_Gibbs | 960 pM | 6 of 6
MISQLYNMGSFAINSVA | QGQTRNE | QQYDRLPLM | En_Gen | 160 nM | 5 of 6
KVRQSTLYESRNKNSVA | GASTRES | QQYHRLPLS | GPLM_HC | 420 pM | 6 of 6
KSSISYLYESMNKNSVA | NASTRMS | QQYHRLPLS | GP_HC | 770 pM | 6 of 6
KISQSVLMESRNKNSVA | WASTRES | QQYQRLPLS | Ctrl | 3.3 nM | 6 of 6
YLSQSELYESRNKNSVA | NASTRES | QQYHRLPLS | GP_Gen | 1.2 nM | 6 of 6
KLMQSSGYESRNFNSVA | QASTRSS | QQYHRLPLS | GP_Gibbs | 3.5 nM | 6 of 6
KLSQSVEYESRDKNSVA | DANTRLS | QQYHRLPLS | GP_Gibbs | 1.6 nM | 6 of 6
KLQQSVLYESRNKNSVA | QASQRES | QQYHRLPLS | GP_Gen | 660 pM | 6 of 6
KLSQSVLYESNNKNSVA | WASTRES | QQYHRLPLS | Ctrl | 52 nM | 6 of 6
QISMMMNLSMHGVNNVA | QMETREK | QQYDRLPLS | En_Gen | 440 nM | 5 of 6

Further variants, results first:

Kd | seen in | CDR-L1 | CDR-L2 | CDR-L3 | group
25 nM | 6 of 6 | ILSDHAVNQYDEADNIA | DKTETAV | QQYARLPLS | En_Gibbs
not detected | 0 of 6 | KFDFQMPELNYQDNSIA | GMTVSIE | QQYWRLPLT | En_Gibbs
81 nM | 3 of 6 | MISQLFMYGSRNYNSIA | QASTRFK | QQYDRLPLE | En_HC
5.6 nM | 6 of 6 | KSSQSVLYESLNKNSVA | QASTRES | QQYHRLPLS | Ctrl
11 nM | 6 of 6 | HMSALTLQGMRARNSVA | QMTTREN | QQYDRLPLS | En_Gen
1.3 nM | 6 of 6 | KLPQSMLYESRNKNSVA | NASTRLS | QQYHRLPLS | GP_Gen
1.2 nM | 6 of 6 | KWEYSVLGESRNKNAVA | QASQREQ | QQYHRLPLS | GP_Gibbs
830 pM | 6 of 6 | KSSKSGLFESRNKNSVA | NASTRES | QQYHRLPLS | GP_HC
940 pM | 6 of 6 | KIEQSMEYESRNVNSVA | NASTREV | QQYHRLPLS | GP_Gibbs
400 pM | 6 of 6 | KLSQSVLYESRNPNSVA | NASTRES | QQYHRLPLS | GP_Gen
11 nM | 6 of 6 | SLFEKEREELLVEDNIA | DGTEHMD | QQYFRLPLL | En_Gibbs
9.5 nM | 6 of 6 | KSSGSVLYESRNKNSVA | WASTRES | QQYHRLPLS | Ctrl
5.9 nM | 6 of 6 | MISQSFLIGMKAKNSVA | QTSTRVS | QQYDRLPLM | En_HC
not detected | 0 of 6 | KSSQSQLYESRNKNSVA | GASTRES | QQYHRLELS | GP_HC
5.3 nM | 6 of 6 | KFSQMVLYESRTKNSVA | NASTRES | QQYHRLPLS | GP_HC
7.3 nM | 6 of 6 | KSSQSVPYESENKNSVA | EASTRES | QQYHRLPLS | Ctrl
2.6 nM | 6 of 6 | QISGITGHQSMSKNNVA | EMVTRVN | QQYDRLPLS | En_Gen
1.2 nM | 6 of 6 | KSSQSDLYESRNKNSVA | GASTREV | QQYHRLPLS | GP_HC
1.7 nM | 6 of 6 | KLQMSEMMESRWCNSVA | QASTREE | QQYHRLPLS | GP_Gibbs
not detected | 0 of 6 | MINMEIGIEDRKWQAVA | SASVRAS | QQYGRLPFS | En_Gibbs
75 nM | 5 of 6 | KISQMVRVGSTHNNSIA | EEATRAK | QQYHRLPLS | En_Gen
9.2 nM | 6 of 6 | SFSQHTMEEMSSNKAVA | EVTTLMN | QQYAQLPFI | En_Gibbs
5.5 nM | 6 of 6 | KQQQSWDGESRNKNSVA | HASKRES | QQYHRLPLS | GP_Gibbs
1.2 nM | 6 of 6 | KVSQSVLYESRNKWSVA | NASTRES | QQYHRLPLS | GP_Gen
1.6 nM | 6 of 6 | KSSISWLYESMNKNSVA | NGSTRES | QQYHRLPLS | GP_HC
57 nM | 6 of 6 | KVQYSMEYESRNKNSVA | EASDRES | QDYHRLPLS | GP_Gibbs
2.4 nM | 6 of 6 | HISMMVGTKGYKKNSVA | NAETRED | QQYHRLPLS | En_HC
15 nM | 6 of 6 | KLSQQNPYESRMMNSVA | MASQRES | QQYHRLPLS | GP_Gibbs
4.0 nM | 6 of 6 | NLPMKELQMSWNVNNVA | DSEQRMK | QQYSRLPLM | En_Gibbs
46 nM | 3 of 6 | KSEWSVLYESRNKNSVA | TASTRES | QQYHRLPLS | Ctrl
75 nM | 6 of 6 | KLSATYRYESQNKNNIA | EMSTRES | QCYHRLPLS | En_HC
1.5 nM | 6 of 6 | KMSQSVLMEWRNKNSVA | DASLRES | QQYHRLPLS | GP_HC
2.5 nM | 6 of 6 | KQSQSVLYESRNKNSVA | HASTRES | QQYHRLPLS | GP_HC
14 nM | 6 of 6 | KLSMLMDLTQKHYNSVA | HVTTRSE | QQYNRLPFS | En_Gen
4.4 nM | 6 of 6 | KSSQSVLYEHRNKNSVA | DVSTRES | QQYHRLPLS | Ctrl
6.5 nM | 6 of 6 | KLNDDFQVYERNNGSVA | DAIISEA | QQYARLPLI | En_Gibbs

Again, the first 4 entries without any signal:

CDR-L1	CDR-L2	CDR-L3	group	Kd	seen in
TVSQVQGMLSHNKNSVA	DMNTRGS	QQYDRLPLS	En_HC	not detected	0 of 6
KFDFQMPELNYQDNSIA	GMTVSIE	QQYWRLPLT	En_Gibbs	not detected	0 of 6
KSSQSQLYESRNKNSVA	GASTRES	QQYHRLELS	GP_HC	not detected	0 of 6
MINMEIGIEDRKWQAVA	SASVRAS	QQYGRLPFS	En_Gibbs	not detected	0 of 6